Reference: article PMC8477557 (Journal of Hematology & Oncology, 2021)

Sequences of proteins named here, by UniProt entry; tags and fusion partners are left off. Residues count along the entry.
UniProt P26951, 19-305: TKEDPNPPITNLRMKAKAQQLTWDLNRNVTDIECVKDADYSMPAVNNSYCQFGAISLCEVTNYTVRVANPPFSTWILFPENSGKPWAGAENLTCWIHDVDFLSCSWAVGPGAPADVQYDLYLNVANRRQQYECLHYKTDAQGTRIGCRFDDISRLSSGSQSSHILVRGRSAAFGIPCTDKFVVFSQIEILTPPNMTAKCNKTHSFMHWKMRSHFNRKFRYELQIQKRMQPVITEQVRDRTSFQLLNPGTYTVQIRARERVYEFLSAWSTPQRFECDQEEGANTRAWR

Target: CD123 extracellular domain (human (cDNA of L-428 cells), UniProt P26951)
Test: cell-based or functional assay

EC50 of NK cell-mediated lysis (ADCC) of MOLM-13 cells, calcein AM release, 4 h, E:T 5:1: 19.1 pM
B1: 2 × SIRPα-αCD123 fusion antibody (bispecific antibody, V domains shown)
VH: EVQLVQSGAEVKKPGESLKISCKGSGYSFTDYYMKWARQMPGKGLEWMGDIIPSNGATFYNQKFKGQVTISADKSISTTYLQWSSLKASDTAMYYCARSHLLRASWFAYWGQGTMVTVSS
VL: DIVMTQSPDSLAVSLGERATINCESSQSLLNSGNQKNYLTWYQQKPGQPPKPLIYWASTRESGVPDRFSGSGSGTDFTLTISSLQAEDVAVYYCQNDYSYPYTFGQGTKLEIK
